# Tests used:
# [1] = system: MDA-MB-231 human breast cancer cells, CAFs and THP-1 cells; assay: Breast cancer 3D organoids (spheroids); type: cell-based; settings: 1 μM, 2 μM
# Excerpt: To complement the limitations in vitro and replace in vivo, a 3D organoid mimicking a tumor microenvironment (TME) of breast cancer was fabricated and an effect of TB511 thereon was confirmed. Specifically, an RPMI-1640 culture medium was mixed to contain 3% Matrigel, and MDA-MB-231 human breast cancer cells, CAFs (Cancer-associated Fibroblasts), and THP-1 cells fabricated to express GFP using MDA-MB-231 human breast chancer cells, Cancer-associated Fibroblast (CAF), and Incucyte®Nuclight Lentivirus Reagents (Sartorius) were counted and dispensed into a 96 u-bottom 3-D culture plate (Sbio) at a ratio of 5:1:1 to be 200 μl. […] From day 2 of spheroid formation, TB511 was treated every three days at concentrations of 1 μM, 2 μM, 4 μM, and 8 μM, and images were taken using a fluorescence microscope. After taking bright-field images, the spheroid area was measured using a method for measuring a Ferret diameter. In addition, the average tumor spheroid diameter was measured using an open source, and the average diameter of three spheroids was analyzed with ImageJ (software version 1.47 m). The spheroid size was analyzed by taking bright-field images (20X), and then measuring the average tumor spheroid diameter of three spheroids with ImageJ (software version 1.47 m). […]
# M2 macrophages = assay: Apoptosis induction by TB511 with or without anti-ITGB2 antibody pretreatment (CCK-8, Western blot, real-time PCR, immunofluorescence); type: cell-based, human
# Protocol: To confirm whether TB511 induced apoptosis through ITGB2 in M2 macrophages, the M2 macrophages with suppressed ITGB2 expression fabricated in Example 7-1 were pretreated with an anti-ITGB2 antibody (Polyclonal Rabbit anti-Human ITGB2/CD18 antibody) (LS-C312785; LS Bio) (1 μg) for 1 hour, and then reacted with TB511 (1 μM) for 1 hour. Thereafter, the induction of apoptosis was confirmed by cell viability analysis using the CCK-8 assay, protein expression of caspase-3, an apoptosis marker, was confirmed by Western blot analysis, gene expression of caspase-3, caspase-8, and caspase-9 was confirmed by Real-time PCR, and induction of protein n expression of caspase-3 was confirmed by immunofluorescence.
# [2] = system: Docetaxel-resistant PC3 prostate cancer cells, CAFs, and THP-1 cells; assay: Anticancer drug-resistant prostate cancer 3D organoids (spheroids); type: cell-based, human; settings: 1 μM, 2 μM, and 4 μM
# Excerpt: (§1) To complement the limitations in vitro and replace in vivo, a 3D organoid mimicking a tumor microenvironment (TME) of breast cancer was fabricated and an effect of TB511 thereon was confirmed. Specifically, an RPMI-1640 culture medium was mixed to contain 3% Matrigel, and MDA-MB-231 human breast cancer cells, CAFs (Cancer-associated Fibroblasts), and THP-1 cells fabricated to express GFP using MDA-MB-231 human breast chancer cells, Cancer-associated Fibroblast (CAF), and Incucyte®Nuclight Lentivirus Reagents (Sartorius) were counted and dispensed into a 96 u-bottom 3-D culture plate (Sbio) at a ratio of 5:1:1 to be 200 μl. After culturing, the cells were collected by centrifugation at 1200 rpm for 3 minutes and then cultured in a 37° C. incubator for 48 hours to form spheroids. From day 2 of spheroid formation, TB511 was treated every three days at concentrations of 1 μM, 2 μM, 4 μM, and 8 μM, and images were taken using a fluorescence microscope. After taking bright-field images, the spheroid area was measured using a method for measuring a Ferret diameter. In addition, the average tumor spheroid diameter was measured using an open source, and the average diameter of three spheroids was analyzed with ImageJ (software version 1.47 m). The spheroid size was analyzed by taking bright-field images (20X), and then measuring the average tumor spheroid diameter of three spheroids with ImageJ (software version 1.47 m). […] For THP-1, images of GFP fluorescence expressed within the cells were taken using a confocal microscope without performing separate staining, and the number of cells expressing fluorescence was measured.
# In order to confirm the efficacy of TB511 on Docetaxel-resistant prostate cancer, 3D spheroids were formed by mixing Docetaxel-resistant PC3 prostate cancer cells, CAFs, and THP-1 cells using the method of Example 8-1 above, and then treated with TB511 at concentrations of 1 μM, 2 μM, and 4 μM, respectively, and the effects thereof were analyzed as in Example 8-1 above. […]
# [3] = system: M2 macrophages in which ITGB2 expression was suppressed by Crispr/cas9; assay: CCK-8 cell viability in M2 macrophages with ITGB2 expression suppressed by Crispr/cas9; type: cell-based, human; settings: TB511, cells where ITGB2 expression was suppressed
# Protocol: As a cell model used to confirm whether apoptosis was induced through ITGB2 in M2 macrophages, a cell model in which the expression of ITGB2 was suppressed in M2 macrophages was fabricated using Crispr/cas9. Specifically, cells differentiated into M2 macrophages were cultured in an Opti-MEM medium. The Crispr/cas9 was mixed with Cas9 protein V2 (Thermo Fisher scientific) and gRNA (Genscript; ITGB2; Table 7) of a CRISPRMAX™ Reagent kit (Thermo Fisher scientific) and a Cas9 Plus™ Reagent (Thermo Fisher scientific), and a CRISPRMAX™ Reagent was diluted in the Opti-MEM medium, mixed together, and reacted for 5 to 10 minutes, and then added to cells differentiated into M2 macrophages and cultured at 37° C. for 2 to 3 days. Thereafter, the mRNA expression level of ITGB2 was confirmed.
# To confirm whether Melittin-dKLA bound to ITGB2 to induce apoptosis in M2 macrophages, Melittin-dKLA (1 μM) was treated for 24 hours to M2 macrophages in which ITGB2 expression was suppressed by Crispr/cas9 fabricated in Example 7-1 above, and cell viability was analyzed using a CCK-8 assay. Specifically, Melittin-dKLA (1 μM) reacted with ITGB2 knockdown macrophages fabricated in Example 7-1 above for 1 hour. After the reaction, the medium was replaced and cultured at 37° C. for 24 hours. […] Absorbance was measured at 450 nm using a microplate reader (Molecular Devices). […]
# [4] = system: Carboplatin-resistant A549 cells, CAFs, and THP-1 cells; assay: Anticancer drug-resistant lung cancer 3D organoids (spheroids); type: cell-based, human; settings: 1 μM, 2 μM, and 4 μM
# Excerpt: as §1
# In order to confirm the efficacy of TB511 on Carboplatin-resistant lung cancer, 3D spheroids were formed by mixing Carboplatin-resistant A549 cells, CAFs, and THP-1 cells using the method of Example 8-1 above, and then treated with TB511 at concentrations of 1 μM, 2 μM, and 4 μM, respectively, and the effects thereof were analyzed as in Example 8-1 above. […]
# [5] = system: A549 human lung cancer cells, CAFs, and THP-1 cells; assay: Lung cancer 3D organoids (spheroids); type: cell-based; settings: 1 μM, 2 μM, and 4 μM
# Excerpt: as §1
# Lung cancer 3D spheroids were fabricated by mixing A549 human lung cancer cells, CAFs, and THP-1 cells using the method of Example 8-1 above, and then treated with TB511 at concentrations of 1 μM, 2 μM, and 4 μM, respectively, and the effects thereof were analyzed as in Example 8-1 above. […]
# [6] = TB511 1 μM, M2 macrophages pretreated with the ITGB2 antibody
structure (smiles),measurement,setting,value
CC[C@H](C)[C@H](NC(=O)[C@H](CC(C)C)NC(=O)[C@H](C)NC(=O)[C@@H]1CCCN1C(=O)[C@H](CC(C)C)NC(=O)CNC(=O)[C@@H](NC(=O)[C@@H](NC(=O)[C@H](CC(C)C)NC(=O)[C@@H](N)C(C)C)[C@@H](C)O)[C@@H](C)O)C(=O)N[C@@H](CO)C(=O)N[C@@H](Cc1c[nH]c2ccccc12)C(=O)N[C@H](C(=O)N[C@@H](CCCCN)C(=O)N[C@@H](CCCNC(=N)N)C(=O)N[C@@H](CCCCN)C(=O)N[C@@H](CCCNC(=N)N)C(=O)N[C@@H](CCC(N)=O)C(=O)N[C@@H](CCC(N)=O)C(=O)NCC(=O)NCC(=O)NCC(=O)NCC(=O)N[C@@H](CO)C(=O)N[C@H](CCCCN)C(=O)N[C@H](CC(C)C)C(=O)N[C@H](C)C(=O)N[C@H](CCCCN)C(=O)N[C@H](CC(C)C)C(=O)N[C@H](C)C(=O)N[C@H](CCCCN)C(=O)N[C@H](CCCCN)C(=O)N[C@H](CC(C)C)C(=O)N[C@H](C)C(=O)N[C@H](CCCCN)C(=O)N[C@H](CC(C)C)C(=O)N[C@H](C)C(=O)N[C@H](CCCCN)C(=O)O)[C@@H](C)CC [TB511],size of spheroids,"[1]; 4 μM, and 8 μM every three days",decreased in a concentration-dependent manner
same,number of THP-1 cells expressing GFP fluorescence,"[1]; 4 μM, and 8 μM, compared to drug-untreated group",significantly decreased in a concentration-dependent manner
same,co-localization of the mitochondria and TB511,M2 macrophages; M2 macrophages pretreated with ITGB2 antibody compared to cells not pretreated,decreased
same,cell viability,"M2 macrophages; M2 macrophages, single agent (ITGB2 antibody 1 μg or TB511 1 μM)",significantly reduced
same,caspase-3 expression (Western blot),"M2 macrophages; TB511 1 μM, M2 macrophages",significantly increased
same,caspase-3 expression (immunofluorescence),"M2 macrophages; TB511 1 μM, M2 macrophages",increased
same,"expression of caspase-3, caspase-8, and caspase-9 (Real-time PCR)","M2 macrophages; TB511 1 μM, M2 macrophages",significantly increased
same,caspase-3 expression (Western blot),M2 macrophages; [6],significantly decreased
same,caspase-3 expression (immunofluorescence),M2 macrophages; [6],decreased
same,cell viability,M2 macrophages; [6],significantly increased
same,"expression of caspase-3, caspase-8, and caspase-9 (Real-time PCR)",M2 macrophages; [6],significantly decreased
same,size of spheroids,[2]; compared to untreated group,significantly reduced in a TB511 concentration-dependent manner
same,number of THP-1 cells,[2]; day 10 after drug treatment,significantly decreased in a concentration-dependent manner
same,tumor proliferation factor ki-67,[2]; day 10 after drug treatment,tended to be reduced
same,cell viability,[3],significantly increased
same,size of spheroids,[4]; compared to untreated group,significantly reduced in a TB511 concentration-dependent manner
same,number of THP-1 cells,[4]; day 10 after drug treatment,significantly decreased in a concentration-dependent manner
same,tumor proliferation factor ki-67,[4]; day 10 after drug treatment,significantly decreased from 2 μM
same,size of spheroids,[5]; compared to untreated group,significantly reduced in a concentration-dependent manner
same,number of THP-1 cells,[5]; day 10 after drug treatment,significantly decreased in a concentration-dependent manner
same,tumor proliferation factor ki-67,[5]; day 10 after drug treatment,decreased in a concentration-dependent manner
